Values of other authors, collected in article PMC7246635, “Structure–Activity Relationship of RGD-Containing Cyclic Octapeptide and αvβ3 Integrin Allows for Rapid Identification of a New Peptide Antagonist” (International Journal of Molecular Sciences, 2020).

The chains behind the UniProt entries cited, without tags or fusion partners. Residues count along the entry.
UniProt P05106, 27-788 limits assumed: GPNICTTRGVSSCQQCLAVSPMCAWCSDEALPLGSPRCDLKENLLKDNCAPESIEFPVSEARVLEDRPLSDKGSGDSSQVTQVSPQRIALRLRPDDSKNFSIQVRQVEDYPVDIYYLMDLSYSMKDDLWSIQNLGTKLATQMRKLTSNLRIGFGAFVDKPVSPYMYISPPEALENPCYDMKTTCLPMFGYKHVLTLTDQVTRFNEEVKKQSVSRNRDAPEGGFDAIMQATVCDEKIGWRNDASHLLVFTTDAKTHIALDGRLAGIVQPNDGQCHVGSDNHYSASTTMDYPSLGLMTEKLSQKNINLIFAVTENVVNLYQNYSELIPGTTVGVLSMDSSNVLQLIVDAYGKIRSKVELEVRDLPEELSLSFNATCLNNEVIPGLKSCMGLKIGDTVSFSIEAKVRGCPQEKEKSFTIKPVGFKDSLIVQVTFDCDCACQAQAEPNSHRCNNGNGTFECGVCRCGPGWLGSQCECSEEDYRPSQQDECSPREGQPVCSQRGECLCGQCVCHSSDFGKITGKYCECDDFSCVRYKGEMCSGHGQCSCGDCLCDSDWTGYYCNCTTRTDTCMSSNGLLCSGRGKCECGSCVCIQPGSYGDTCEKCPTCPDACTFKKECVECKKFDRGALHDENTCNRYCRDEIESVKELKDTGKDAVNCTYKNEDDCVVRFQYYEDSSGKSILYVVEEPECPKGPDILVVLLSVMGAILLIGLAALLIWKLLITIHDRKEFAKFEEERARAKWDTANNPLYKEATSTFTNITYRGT
UniProt P06756, 31-889 limits assumed: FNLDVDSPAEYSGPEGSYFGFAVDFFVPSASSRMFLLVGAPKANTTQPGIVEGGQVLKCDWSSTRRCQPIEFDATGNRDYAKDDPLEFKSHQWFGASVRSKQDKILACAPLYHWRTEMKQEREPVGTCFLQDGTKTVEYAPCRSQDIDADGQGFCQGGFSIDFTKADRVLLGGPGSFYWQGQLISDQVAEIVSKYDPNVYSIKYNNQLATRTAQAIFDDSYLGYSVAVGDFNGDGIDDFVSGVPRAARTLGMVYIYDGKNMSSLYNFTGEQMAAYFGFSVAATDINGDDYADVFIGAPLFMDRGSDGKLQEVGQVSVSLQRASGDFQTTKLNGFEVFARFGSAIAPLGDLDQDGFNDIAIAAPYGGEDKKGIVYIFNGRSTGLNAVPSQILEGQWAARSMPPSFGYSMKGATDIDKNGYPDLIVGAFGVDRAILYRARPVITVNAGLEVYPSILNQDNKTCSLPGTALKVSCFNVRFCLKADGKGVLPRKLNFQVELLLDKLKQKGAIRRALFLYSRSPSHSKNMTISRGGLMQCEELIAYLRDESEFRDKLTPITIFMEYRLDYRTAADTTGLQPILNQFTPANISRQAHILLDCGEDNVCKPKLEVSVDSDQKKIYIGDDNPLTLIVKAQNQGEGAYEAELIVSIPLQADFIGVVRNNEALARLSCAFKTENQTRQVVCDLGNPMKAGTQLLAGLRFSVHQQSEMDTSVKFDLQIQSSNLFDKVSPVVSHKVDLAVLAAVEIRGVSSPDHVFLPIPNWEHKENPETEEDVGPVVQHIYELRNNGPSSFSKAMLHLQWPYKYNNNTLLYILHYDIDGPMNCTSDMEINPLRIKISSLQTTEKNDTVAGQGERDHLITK
UniProt P06756, 891-1048 partner limits assumed: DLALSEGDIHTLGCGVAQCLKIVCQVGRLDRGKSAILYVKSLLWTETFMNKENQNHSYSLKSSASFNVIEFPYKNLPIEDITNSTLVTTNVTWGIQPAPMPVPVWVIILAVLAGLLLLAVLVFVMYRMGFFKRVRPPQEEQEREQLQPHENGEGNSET

Biological target: αvβ3 integrin (Homo sapiens, UniProt P05106+P06756)
Settings: known IC50s from previous in vitro screening, binding to αvβ3 integrin; Table 3; cited from earlier work
Source text: Targeting tumor cells or tumor vasculature by RGD-based strategies is a promising approach for delivering anticancer drugs or contrast agents for cancer therapy and diagnosis. RGD-based strategies include RGD peptide or peptidomimetic drugs, RGD-conjugates, and the grafting of the RGD peptide or peptidomimetic, as targeting ligand, at the surfa ... || (+ 4 further places)

## N=C(N)NCCC[C@@H]1NC(=O)CNC(=O)[C@H](N)CSSC[C@H](C(N)=O)NC(=O)[C@@H](Cc2ccc3ccccc3c2)NC(=O)[C@@H](CC(=O)O)NC(=O)[C@H](CC(=O)O)NC(=O)CNC1=O
  IC50: 0.13 µM
